Laboratory results as given in PMC7723054.
Some of the results follow.

T1: LIN28A (human?, UniProt Q9H9Z2 1-209)
T1 sequence: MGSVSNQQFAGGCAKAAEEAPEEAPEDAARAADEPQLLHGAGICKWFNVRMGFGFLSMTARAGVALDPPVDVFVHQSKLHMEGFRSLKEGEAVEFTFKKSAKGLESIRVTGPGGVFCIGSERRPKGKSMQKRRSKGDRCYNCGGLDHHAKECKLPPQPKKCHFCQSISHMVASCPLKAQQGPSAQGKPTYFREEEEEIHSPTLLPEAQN

T2: CIRBP (Homo sapiens, UniProt Q14011 1-172)
T2 sequence: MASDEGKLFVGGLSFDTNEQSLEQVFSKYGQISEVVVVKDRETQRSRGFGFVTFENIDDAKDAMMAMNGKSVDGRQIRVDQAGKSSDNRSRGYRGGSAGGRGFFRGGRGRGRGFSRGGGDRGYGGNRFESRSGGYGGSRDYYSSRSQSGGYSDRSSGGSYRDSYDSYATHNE

T3: DHX36 (Homo sapiens, UniProt Q9H2U1 1-1008)
T3 sequence: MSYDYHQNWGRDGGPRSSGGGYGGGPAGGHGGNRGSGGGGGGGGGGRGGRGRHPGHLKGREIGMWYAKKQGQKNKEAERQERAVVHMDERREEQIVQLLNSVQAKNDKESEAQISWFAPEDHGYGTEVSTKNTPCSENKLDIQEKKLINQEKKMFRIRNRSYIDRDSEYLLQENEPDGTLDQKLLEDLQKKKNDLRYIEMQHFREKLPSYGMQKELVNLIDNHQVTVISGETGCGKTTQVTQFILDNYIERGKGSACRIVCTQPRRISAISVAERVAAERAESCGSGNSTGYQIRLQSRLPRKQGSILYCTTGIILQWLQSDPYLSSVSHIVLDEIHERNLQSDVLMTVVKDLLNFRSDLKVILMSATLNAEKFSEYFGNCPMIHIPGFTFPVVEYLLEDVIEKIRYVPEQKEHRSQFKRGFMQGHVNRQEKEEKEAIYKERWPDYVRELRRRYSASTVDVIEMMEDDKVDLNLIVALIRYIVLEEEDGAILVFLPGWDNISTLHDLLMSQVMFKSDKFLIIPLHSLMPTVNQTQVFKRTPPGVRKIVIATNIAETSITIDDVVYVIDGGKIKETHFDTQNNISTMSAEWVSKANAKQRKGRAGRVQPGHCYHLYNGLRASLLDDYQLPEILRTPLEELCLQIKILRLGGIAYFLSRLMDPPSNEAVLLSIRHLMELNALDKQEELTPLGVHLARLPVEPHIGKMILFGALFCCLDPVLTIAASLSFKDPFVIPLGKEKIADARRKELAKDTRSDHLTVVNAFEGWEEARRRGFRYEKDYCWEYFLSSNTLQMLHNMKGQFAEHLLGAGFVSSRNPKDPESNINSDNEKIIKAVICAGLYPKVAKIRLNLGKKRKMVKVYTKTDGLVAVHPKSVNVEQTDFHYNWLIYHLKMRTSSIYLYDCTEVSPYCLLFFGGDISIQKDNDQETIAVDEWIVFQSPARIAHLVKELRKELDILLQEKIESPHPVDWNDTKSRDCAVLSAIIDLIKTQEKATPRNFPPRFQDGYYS

B1: hsa-mir-503 (structured_RNA)
RNA: GGGACGCUCCGUCGUUAAAAGCAUGUCUGGUGUACGAAGUUUCAGCCUGCAGUGAGCGAUCGGUGCUCUGGGGGCUGAAGCUUCGUGCAC
B2: hsa-mir-3116-2 (structured_RNA)
RNA: GGGACGCGCCGAUUAUAGCGAUACCUACGGUGUACGAAGUUUCAGCGGCACCUACGAUACCCAGUGCCGCUGAAGCUUCGUGCAC
B3: hsa-mir-718 (structured_RNA)
RNA: GGGAAAACGACACUCGCUAUGUCUCUGCGGUGUACGAAGUUUCAGCGCCCGGGCACCGCCCCUUGCUGAAGCUUCGUGCAC
B4: hsa-mir-4774 (structured_RNA)
RNA: GGGACAGUGGGGUUAAACCUACACAUUCGGUGUACGAAGUUUCAGCUAAUAACUGACAAACAGACAAUUGGCUGAAGCUUCGUGCAC
B5: hsa-mir-4661 (structured_RNA)
RNA: GGGAUAUACACGGGAGUCUGUCCGCCAUGGUGUACGAAGUUUCAGCCCUGACAGACAGCCUGAUAGACAGGGCUGAAGCUUCGUGCAC
B6: hsa-mir-146a (structured_RNA)
RNA: GGGAAACGCACGAUUUGUUGAUGAUCAAGGUGUACGAAGUUUCAGCUGGGUUGUGUCAGUGUCAGACCUCGCUGAAGCUUCGUGCAC
B7: hsa-mir-19b-1 (structured_RNA)
RNA: GGGAACAACGGCGACGUGACCUAACUCUGGUGUACGAAGUUUCAGCUCCAGCUGUGUGAUAUUCUGCUGGCUGAAGCUUCGUGCAC
B8: hsa-mir-138-2 (structured_RNA)
RNA: GGGAAAGACUUGGGAGAAUUAAUCCGCUGGUGUACGAAGUUUCAGCAGGCCGACGAGCAGCGCAUCCUCUUACCCGGCUAGCUGAAGCUUCGUGCAC
B9: PARIS_ID21 (structured_RNA)
RNA: GGGAAAAGACCGGAGAUGAAAGCUGCACGGUGUACGAAGUUUCAGCGUAUGUAUUUUAUUAUUACCGGUUUUCCAUUUAUGAUGGUAAUAUUGUUUCUUCUAAGAAUAUUUAUGCUGAAGCUUCGUGCAC
B10: hsa-mir-591 (structured_RNA)
RNA: GGGACGCUGGCGGCUUGUACUUCAUAUUGGUGUACGAAGUUUCAGCUUGUAAUAGUGUAGAAUGUUGGUUAACGCUGAAGCUUCGUGCAC
B11: hsa-mir-203b (structured_RNA)
RNA: GGGAAUCGAACUUUGGGGAGGAACACCAGGUGUACGAAGUUUCAGCUCACAAUUGCGCUACAGAACUGUUGAGCUGAAGCUUCGUGCAC
B12: hsa-mir-3202-1 (structured_RNA)
RNA: GGGACAAAGAGAAGGAGGACUUAUGUUAGGUGUACGAAGUUUCAGCUAAUGAUUGGAGUCAUUUUCAGAGCAUUAGCUGAAGCUUCGUGCAC
B13: hsa-mir-6798 (structured_RNA)
RNA: GGGAAGGGUUAUAGGCCACUGUCACCAAGGUGUACGAAGUUUCAGCCUUGGGCCCAUUCCUUUCCUUACCCUACGCUGAAGCUUCGUGCAC
B14: hsa-mir-6505 (structured_RNA)
RNA: GGGAGGCAUUACGCCAAAACUGUCUACCGGUGUACGAAGUUUCAGCCUCAGCAUGUUGAGCCCUGUCUCUGGGGAGCUGACGCUGAAGCUUCGUGCAC
B15: hsa-mir-4753 (structured_RNA)
RNA: GGGACUGGUAAACGCGACGUUACAUCUGGGUGUACGAAGUUUCAGCAGAACAGAUAUAUCCACAGUACACUUGGCUGUUCUGCUGAAGCUUCGUGCAC
B16: hsa-mir-629 (structured_RNA)
RNA: GGGAUGGGACAGCGUCCAAACAUGACCAGGUGUACGAAGUUUCAGCGAACUUUUACGGUGAACCAGGAGGUUCGCUGAAGCUUCGUGCAC
B17: hsa-mir-568 (structured_RNA)
RNA: GGGAUGGUCGCGCUACCCUAUGCUCAGUGGUGUACGAAGUUUCAGCACACUUCCUAUAUGUAUCCACAUAUAUAUAGUGCUGAAGCUUCGUGCAC
B18: hsa-mir-4646 (structured_RNA)
RNA: GGGAGUCACCAGAGUCUGUAUCGGCCAUGGUGUACGAAGUUUCAGCGGGACAUUGCGGAGAGGGUCUCACAUUGUCCCGCUGAAGCUUCGUGCAC
B19: hsa-mir-6799 (structured_RNA)
RNA: GGGAAGUGUAGGCACGGCAUCACAUCCGGGUGUACGAAGUUUCAGCGGCUGGGGUCACUGACUCUGCUUCCCCUGCCGCUGAAGCUUCGUGCAC
B20: hsa-mir-3978 (structured_RNA)
RNA: GGGACCACUUGAGGCUUAACUAAACGGUGGUGUACGAAGUUUCAGCGUGGAGCCAAAAUUAGAAGGGCCAAAAUUCUACCUGGCCCACUACCACAGGCUGAAGCUUCGUGCAC
B21: hsa-mir-1199 (structured_RNA)
RNA: GGGACAUCUUGCAUAUCGGUCAGCACAGGGUGUACGAAGUUUCAGCGCAGGCCGUGAACUCGUCGAGCUGCGCGUGCGGCCGGUGCUCAGCUGAAGCUUCGUGCAC
B22: hsa-mir-1298 (structured_RNA)
RNA: GGGAACAGGAGCGUACCCUAGGGACAAGGGUGUACGAAGUUUCAGCGAUGUAUCCAAGUACCCUGUGUUAUUUGGCAAUAAAUACAUCGCUGAAGCUUCGUGCAC

molecular target: U1A (Homo sapiens, UniProt P09012); assay: FOREST: bead pull-down of RNA structure library v1, barcode microarray; U1A/LIN28A: 20 mM HEPES pH 7.5, 80 mM KCl, 20 mM NaCl, 10% glycerol, 2 mM DTT, 0.1 ug/uL BSA, 4 C; BG4/CIRBP/DHX36: 10 mM Tris-HCl pH 7.5, 100 mM KCl (or LiCl),; high values mean tight binding

Binder | binding signal
B1 | 0.28 z-score
B2 | 0.278 z-score
B3 | 0.28 z-score
B4 | 0.288 z-score
B5 | 0.282 z-score
B6 | 0.271 z-score
B7 | 0.269 z-score
B8 | 0.284 z-score
B9 | 0.273 z-score
B10 | 1.89 z-score
B11 | 0.282 z-score
B12 | 0.271 z-score
B13 | 0.274 z-score
B14 | 0.294 z-score
B15 | 1.88 z-score
B16 | 0.284 z-score
B17 | 0.291 z-score
B18 | 0.275 z-score
B19 | 0.268 z-score
B20 | 0.297 z-score
B21 | 0.271 z-score
B22 | 0.289 z-score

molecular target: T1, LIN28A; assay: as above

Binder | binding signal
B1 | 0.178 z-score
B2 | 2.74 z-score
B3 | -1.05 z-score
B4 | -1.25 z-score
B5 | 1.25 z-score
B6 | 1.03 z-score
B7 | 2.46 z-score
B8 | 1.58 z-score
B9 | 1.96 z-score
B10 | 1.02 z-score
B11 | 0.778 z-score
B12 | -0.528 z-score
B13 | -0.0208 z-score
B14 | -0.466 z-score
B15 | 0.0283 z-score
B16 | 0.217 z-score
B17 | -1.1 z-score
B18 | 0.856 z-score
B19 | -0.0956 z-score
B20 | 2.19 z-score
B21 | 0.561 z-score
B22 | -0.163 z-score

molecular target: T2, CIRBP; assay: as above

Binder | binding signal
B1 | -1.29 z-score
B2 | 0.548 z-score
B3 | -0.0139 z-score
B4 | -0.072 z-score
B5 | 0.0564 z-score
B6 | 1.83 z-score
B7 | -0.661 z-score
B8 | 3.24 z-score
B9 | 2.11 z-score
B10 | 1.63 z-score
B11 | 2.13 z-score
B12 | -0.457 z-score
B13 | -0.0469 z-score
B14 | -0.806 z-score
B15 | -0.193 z-score
B16 | 0.534 z-score
B17 | -1.82 z-score
B18 | 0.868 z-score
B19 | -0.79 z-score
B20 | -0.447 z-score
B21 | 0.648 z-score
B22 | -0.095 z-score

molecular target: T3, DHX36; assay: as above

Binder | binding signal
B1 | 0.258 z-score
B2 | 0.255 z-score
B3 | -0.262 z-score
B4 | -0.0991 z-score
B5 | -0.0507 z-score
B6 | 0.0214 z-score
B7 | -0.726 z-score
B8 | 1.25 z-score
B9 | 0.576 z-score
B10 | 1.77 z-score
B11 | 1.53 z-score
B12 | -0.0344 z-score
B13 | 0.434 z-score
B14 | 0.289 z-score
B15 | -0.0936 z-score
B16 | -0.151 z-score
B17 | 0.278 z-score
B18 | 1.53 z-score
B19 | 0.352 z-score
B20 | 0.066 z-score
B21 | 0.401 z-score
B22 | -0.989 z-score
